Ab-14 light chain CDR variants: yeast mating affinities

Reference: Li et al. 2023, doi:10.1038/s41467-023-39022-2. File: FLAb, binding data.

Target: peptide PDVDLGDISGINAS, taken from heptad repeat 2 (HR2) of SARS-CoV-2 spike.

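The parent was found by panning a naive human phage display library on the peptide. These sequences belong to a second round, designed from the earlier measurements on random variants of the parent. Their group label is 14L_En_Gibbs (En: ensemble of fine-tuned language models; Gibbs: Gibbs sampling). The scFvs were displayed on barcoded MATa yeast, the peptide on MATalpha yeast. The frequency of each diploid, read from paired DNA barcodes, reflects how well the two displayed proteins bind. Scores were corrected for input abundance and mapped to Kd with protein pairs of known affinity run in the same pool. There are six technical replicates.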

Parent: Ab-14, a human scFv built as VH, the linker GGGGSGGGGSGGGGS, VL. Only the CDRs of the light chain vary.
VH: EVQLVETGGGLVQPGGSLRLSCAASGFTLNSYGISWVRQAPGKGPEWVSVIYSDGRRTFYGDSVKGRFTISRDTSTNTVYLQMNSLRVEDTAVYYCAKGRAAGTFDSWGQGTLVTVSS
VL: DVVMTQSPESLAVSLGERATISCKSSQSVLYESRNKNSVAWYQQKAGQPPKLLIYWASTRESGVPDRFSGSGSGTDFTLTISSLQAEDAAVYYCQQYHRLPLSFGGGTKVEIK

Each variant is given by its three light chain CDRs, as the data file delimits them; those of the parent are KSSQSVLYESRNKNSVA, WASTRES, QQYHRLPLS.
Values are log10 of the apparent Kd in nM; lower means stronger binding.
Replicates are averaged; those with no signal do not enter the mean.
"nd" means that the variant was in the library but no mating with the target was seen in that replicate; the authors take this as a sign of poor binding, and no number exists.

{"CDR-L1": "QIFFNDFQYGIESQNIA", "CDR-L2": "QGSMREV", "CDR-L3": "QQYARLPLV", "replicates, log10 nM": "0.28 / 0.53 / 0.20 / 0.37 / 0.17 / 0.54", "mean log10 Kd (nM)": "0.35", "empty controls": "0 of 18"}
{"CDR-L1": "QMTHPEESWQANQRSIA", "CDR-L2": "NASASLD", "CDR-L3": "QQYAQLPLM", "replicates, log10 nM": "0.87 / 0.28 / 0.47 / 0.37 / 0.35 / 0.56", "mean log10 Kd (nM)": "0.48", "empty controls": "1 of 18 (2.76)"}
{"CDR-L1": "NLVGRVPDNYTERNAIA", "CDR-L2": "DMHCRAG", "CDR-L3": "QQYSRLPLS", "replicates, log10 nM": "0.99 / 1.18 / 1.08 / 1.04 / 1.03 / 1.02", "mean log10 Kd (nM)": "1.06", "empty controls": "7 of 18 (3.21)"}
{"CDR-L1": "QLTHPSASWQANQASIA", "CDR-L2": "DASLSLQ", "CDR-L3": "QQYAQLPLM", "replicates, log10 nM": "nd / 1.67 / 0.18 / 2.01 / 1.68 / nd", "mean log10 Kd (nM)": "1.38", "empty controls": "0 of 18"}
{"CDR-L1": "NMEVSLVDAKNRDSSIA", "CDR-L2": "DEELHTI", "CDR-L3": "QQYNRLPFS", "replicates, log10 nM": "nd / nd / nd / nd / nd / nd", "mean log10 Kd (nM)": "nd", "empty controls": "0 of 18"}
{"CDR-L1": "MIFYGQERDIAHESSIA", "CDR-L2": "NDMARVK", "CDR-L3": "QQYARLPLS", "replicates, log10 nM": "2.06 / 1.44 / 2.00 / 1.89 / 2.96 / 2.44", "mean log10 Kd (nM)": "2.13", "empty controls": "0 of 18"}
{"CDR-L1": "RVSSMLMAGGIIYNNIA", "CDR-L2": "NTKVLER", "CDR-L3": "QQYMRLPLM", "replicates, log10 nM": "1.25 / nd / nd / nd / nd / 1.07", "mean log10 Kd (nM)": "1.16", "empty controls": "0 of 18"}
{"CDR-L1": "HLSFPWQLGHDSTNAVA", "CDR-L2": "NDSTLMT", "CDR-L3": "QHYNRLPLS", "replicates, log10 nM": "1.59 / 1.68 / 0.89 / 0.53 / 2.35 / 1.26", "mean log10 Kd (nM)": "1.38", "empty controls": "0 of 18"}
{"CDR-L1": "RLDSVWEQLTNRAQNVA", "CDR-L2": "NATTVIA", "CDR-L3": "QQYMRLPLV", "replicates, log10 nM": "0.50 / 0.52 / 0.98 / 0.71 / 0.48 / 0.89", "mean log10 Kd (nM)": "0.68", "empty controls": "1 of 18 (2.81)"}
{"CDR-L1": "QLAVDRGQEYKMGAAIA", "CDR-L2": "GKTTVED", "CDR-L3": "QQYARLPLS", "replicates, log10 nM": "nd / nd / nd / nd / nd / nd", "mean log10 Kd (nM)": "nd", "empty controls": "0 of 18"}
{"CDR-L1": "QVFFQLFEQGNRSNPIA", "CDR-L2": "HESMRET", "CDR-L3": "QQYAYLPLT", "replicates, log10 nM": "nd / nd / nd / nd / nd / nd", "mean log10 Kd (nM)": "nd", "empty controls": "0 of 18"}
{"CDR-L1": "QLPFERGDGYLQKNNVA", "CDR-L2": "EGTESSH", "CDR-L3": "QQYMRLPLT", "replicates, log10 nM": "1.56 / 1.24 / 1.50 / 1.30 / 2.04 / 1.91", "mean log10 Kd (nM)": "1.59", "empty controls": "1 of 18 (2.67)"}
{"CDR-L1": "HLHTVNYTQAIGTNAIA", "CDR-L2": "DATLSVT", "CDR-L3": "QQYFRLPIM", "replicates, log10 nM": "2.07 / 0.87 / 0.92 / 1.34 / 0.81 / 1.24", "mean log10 Kd (nM)": "1.21", "empty controls": "1 of 18 (1.99)"}
{"CDR-L1": "NISLFIPEQKEWDANIA", "CDR-L2": "GATLKPT", "CDR-L3": "QDYARLPLS", "replicates, log10 nM": "nd / 3.91 / nd / nd / nd / nd", "mean log10 Kd (nM)": "3.91", "empty controls": "0 of 18"}
{"CDR-L1": "TLVGNIQGGGWAKKNVA", "CDR-L2": "DEVMRVN", "CDR-L3": "QQYYRLPLS", "replicates, log10 nM": "0.25 / 0.37 / 0.64 / 0.17 / 0.63 / 0.46", "mean log10 Kd (nM)": "0.42", "empty controls": "0 of 18"}
{"CDR-L1": "MIEIIHDGYMEMRSAVA", "CDR-L2": "DTSLVRM", "CDR-L3": "QQYYRLPLM", "replicates, log10 nM": "nd / nd / nd / nd / nd / nd", "mean log10 Kd (nM)": "nd", "empty controls": "0 of 18"}
{"CDR-L1": "KLFGGIPEQERDDYSIA", "CDR-L2": "KGTLREV", "CDR-L3": "QQYQRLPLS", "replicates, log10 nM": "0.42 / 0.12 / 0.31 / 0.20 / 0.03 / 0.33", "mean log10 Kd (nM)": "0.23", "empty controls": "1 of 18 (2.01)"}
{"CDR-L1": "KFHMGHEAGQRKHDNVA", "CDR-L2": "EANLRPS", "CDR-L3": "QQYFRLPII", "replicates, log10 nM": "1.94 / 1.70 / 1.39 / 1.62 / 1.21 / 2.00", "mean log10 Kd (nM)": "1.64", "empty controls": "2 of 18 (2.10)"}
{"CDR-L1": "RISRHVYDETNTYENVA", "CDR-L2": "NEHIRAN", "CDR-L3": "QQYSRLPLS", "replicates, log10 nM": "-0.18 / 0.22 / -0.25 / 0.01 / -0.16 / 0.17", "mean log10 Kd (nM)": "-0.03", "empty controls": "1 of 18 (1.70)"}
{"CDR-L1": "VFSGQWDLNTTENSAVA", "CDR-L2": "NVSERML", "CDR-L3": "QQYNRLPLM", "replicates, log10 nM": "1.41 / 1.72 / 1.40 / 1.67 / 1.70 / 1.64", "mean log10 Kd (nM)": "1.59", "empty controls": "1 of 18 (2.69)"}
{"CDR-L1": "RIDAYPPMQGNNIDSIA", "CDR-L2": "ENAITLD", "CDR-L3": "QQYAQLPLS", "replicates, log10 nM": "nd / nd / 2.47 / nd / nd / nd", "mean log10 Kd (nM)": "2.47", "empty controls": "0 of 18"}
{"CDR-L1": "KIRVHNLMFSQNESSIA", "CDR-L2": "GMSVRSE", "CDR-L3": "QQYYHLPLT", "replicates, log10 nM": "2.03 / 2.36 / 2.36 / nd / 2.58 / 3.34", "mean log10 Kd (nM)": "2.54", "empty controls": "0 of 18"}
{"CDR-L1": "RIDAYPPMLGKNIDSIA", "CDR-L2": "ENAITLH", "CDR-L3": "QQYANLPLS", "replicates, log10 nM": "nd / nd / nd / nd / 3.06 / 2.60", "mean log10 Kd (nM)": "2.83", "empty controls": "1 of 18 (2.05)"}

The last 3 entries again:

CDR-L1	CDR-L2	CDR-L3	replicates, log10 nM	mean log10 Kd (nM)	empty controls
RIDAYPPMQGNNIDSIA	ENAITLD	QQYAQLPLS	nd / nd / 2.47 / nd / nd / nd	2.47	0 of 18
KIRVHNLMFSQNESSIA	GMSVRSE	QQYYHLPLT	2.03 / 2.36 / 2.36 / nd / 2.58 / 3.34	2.54	0 of 18
RIDAYPPMLGKNIDSIA	ENAITLH	QQYANLPLS	nd / nd / nd / nd / 3.06 / 2.60	2.83	1 of 18 (2.05)

In the paper, a design with two or fewer of six values counts as a poor binder.
As a blank, each scFv also met three strains without target: over all light chain designs, 4% of these pairings were detected, typically at 2.64 and seldom below 1.59. For each scFv, signals with the empty controls are counted beside the result, with their mean in brackets.
The range of this assay differs from that of the first round, and the authors advise against merging the two.